The entries are a selection whose mix differs from that of the whole data set.

This experiment deals with T1, Protein deacetylase HDAC6 (Homo sapiens) (UniProt Q9UBN7).
T1 sequence (whole entry): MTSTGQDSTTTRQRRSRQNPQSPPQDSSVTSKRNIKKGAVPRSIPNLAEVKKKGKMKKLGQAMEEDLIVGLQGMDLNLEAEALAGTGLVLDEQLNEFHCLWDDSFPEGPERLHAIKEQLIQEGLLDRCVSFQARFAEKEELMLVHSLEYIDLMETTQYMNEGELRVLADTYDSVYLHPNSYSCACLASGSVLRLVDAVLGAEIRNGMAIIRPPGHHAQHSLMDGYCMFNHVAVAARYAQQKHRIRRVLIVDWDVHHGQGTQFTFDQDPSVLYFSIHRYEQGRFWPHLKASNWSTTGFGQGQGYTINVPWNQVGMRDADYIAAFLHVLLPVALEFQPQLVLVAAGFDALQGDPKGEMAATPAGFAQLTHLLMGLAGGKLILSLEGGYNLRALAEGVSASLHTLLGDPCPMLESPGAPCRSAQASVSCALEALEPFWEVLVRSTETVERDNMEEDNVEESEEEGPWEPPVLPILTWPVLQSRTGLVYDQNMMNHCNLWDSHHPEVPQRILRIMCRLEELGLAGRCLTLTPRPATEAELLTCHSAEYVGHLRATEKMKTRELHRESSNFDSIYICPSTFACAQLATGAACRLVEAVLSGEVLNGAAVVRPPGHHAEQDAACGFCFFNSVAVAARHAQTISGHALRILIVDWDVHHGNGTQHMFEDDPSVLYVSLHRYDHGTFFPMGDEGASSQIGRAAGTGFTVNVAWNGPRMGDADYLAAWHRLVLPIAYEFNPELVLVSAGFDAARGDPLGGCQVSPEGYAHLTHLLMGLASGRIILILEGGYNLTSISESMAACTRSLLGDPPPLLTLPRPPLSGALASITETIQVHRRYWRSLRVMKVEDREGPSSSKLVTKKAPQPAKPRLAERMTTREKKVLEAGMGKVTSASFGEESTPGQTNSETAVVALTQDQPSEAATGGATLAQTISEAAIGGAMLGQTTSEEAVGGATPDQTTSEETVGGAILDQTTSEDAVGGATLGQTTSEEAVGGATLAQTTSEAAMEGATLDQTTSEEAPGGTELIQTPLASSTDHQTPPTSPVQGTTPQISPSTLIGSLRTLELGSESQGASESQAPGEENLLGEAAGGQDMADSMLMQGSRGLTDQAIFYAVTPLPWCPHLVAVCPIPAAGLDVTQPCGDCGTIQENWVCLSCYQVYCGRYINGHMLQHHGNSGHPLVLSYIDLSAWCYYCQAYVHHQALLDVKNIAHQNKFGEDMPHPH
Particulars: at 10 µM.
On to `CN(CCCl)CCCl`, for which the inhibition was -0.07%.

In the case of `CCC(=O)N(c1ccccc1)C1(COC)CCN(CCc2cccs2)CC1`, the inhibition is 0.91%.

These data come from ChEMBL document CHEMBL4808148, “HDAC6 screening dataset using tau-based substrate in an enzymatic assay yields selective inhibitors and activators” (2021).
